In the data set the test system is Alcaligenes denitrificans denitrificans (CR-1). As to the kind of experiment: Degradation of 1,4-dibenz-oxazepine and its proposed degradation products by CR-1, measured by HPLC. To be noted: for % Degradation/24 hrs.: CR-1, per 24 hrs, T82MV, HPLC.

Regarding `Cc1ccccc1O`, the “observed degradation by CR-1 (in words)” value is reported as “except for o-cresol” and the “% Degradation/24 hrs.” value was 0.0%.

For the molecule `Cc1cccc(O)c1O`, the “observed degradation by CR-1 (in words)” value is recorded as “has been degraded using CR-1” and the “% Degradation/24 hrs.” value is given as 21.0%.

On to `Oc1ccccc1O`, for which the “observed degradation by CR-1 (in words)” value is “observed degradation” and the “% Degradation/24 hrs.” value is 3.4%.

(Values after patent US4965202A, “Biodegradation of 1,4-dibenz-oxazepine and related compounds” (dated 1990).)
